# Measurements: US20100260673A1, “PHAGE DISPLAY PEPTIDE PROBES FOR IMAGING EARLY RESPONSES TO ANTIANGIOGENIC TREATMENT” (priority 2009, published 2010)
# Test system: LS174T tumor
# Settings: for tumor contrast / tumor accumulation: 4 h, both Bevacizumab-treated and saline/vehicle control mice
sequence,measurement,setting,value
WTLRPTLHTDHA [IRdye800-labeled scrambled peptide],tumor contrast / tumor accumulation,,little tumor contrast
same,tumor contrast / tumor accumulation,listed as scrambled peptide,no tumor accumulation
same,renal clearance,"LS174T tumor mice, 1 nmol dye/mouse",rapid renal clearance

# Where two headings read alike, the source gives them in different places.
